Laboratory results taken from patent publication US7053101B2, “1,3,8-triazaspiro[4,5]decan-4-one derivatives useful for the treatment of ORL-1 receptor mediated disorders” (dated 2006).

Biological target: human nociceptin receptor (ORL-1) (Homo sapiens, UniProt P41146)
Test: nociceptin receptor binding assay (125I-Tyr14-nociceptin displacement, HEK293 cell membranes)
Conditions: for IC50: 125I-Tyr14-nociceptin 0.5 nM, HEK293 cell membranes; for % Inh @ 10 μM: 10 μM test compound; for % Inh @ 10 μM / % Inh @ 100 μM: inhibition of 125I-Tyr14-nociceptin binding; for % Inh @ 100 μM: 100 μM test compound

| Compound | IC50 [nM] | % Inh @ 10 μM | % Inh @ 100 μM |
| --- | --- | --- | --- |
| CC(C)(C)OC(=O)n1cccc1-c1ccccc1CN1CCC2(CC1)C(=O)NCN2c1ccccc1 | 759 |  |  |
| Cc1noc(C)c1-c1ccccc1CN1CCC2(CC1)C(=O)NCN2c1ccccc1 | 2700 |  |  |
| O=C1NCN(c2ccc(F)cc2)C12CCN(CCCCc1ccccc1-c1cccs1)CC2 | 740 |  |  |
| O=C1NCN(c2ccccc2)C12CCN(Cc1cccc(-c3cc(Cl)cc(Cl)c3)c1)CC2 | 574 |  |  |
| O=C1NCN(c2cccc(Br)c2)C12CCN(Cc1ccccc1-c1ccco1)CC2 | 23 |  |  |
| O=C1NCN(c2ccccc2)C12CCN(Cc1ccccc1-c1ccsc1)CC2 | 12 |  |  |
| O=C1NCN(c2ccccc2)C12CCN(Cc1cccc(-c3cccnc3)c1)CC2 | 1110 |  |  |
| N#Cc1ccc(-c2ccccc2CN2CCC3(CC2)C(=O)NCN3c2ccccc2)s1 | 1300 |  |  |
| O=C1NCN(c2ccccc2)C12CCN(Cc1ccccc1OC1CCCc3ccccc31)CC2 (stereo not drawn) | 866 |  |  |
| O=C1NCN(c2ccccc2)C12CCN(Cc1cccc(CN3CCCC3)c1)CC2 | > 10000 | 11% |  |
| O=C1NCN(c2ccccc2)C12CCN(Cc1ccccc1-c1cc(Cl)cc(Cl)c1)CC2 | 190 |  |  |
| O=C1NCN(c2ccccc2)C12CCN(Cc1ccc(-c3ccsc3)cc1)CC2 | 362 |  |  |
| O=C1NCN(c2ccccc2)C12CCN(Cc1cccc(COc3cccc4c3CCCC4)c1)CC2 | 750 |  |  |
| CN(C)c1ccc(-c2ccccc2CN2CCC3(CC2)C(=O)NCN3c2ccccc2)cc1 | > 10000 | 24% | 19.5% |
| O=C1NCN(c2ccccc2)C12CCN(Cc1ccc(F)cc1-c1ccsc1)CC2 | 8 |  |  |
| O=C1NCN(c2ccccc2)C12CCN(Cc1cccc(-c3cccc4ccccc34)c1)CC2 | 244 |  |  |
| CC1CN(Cc2ccccc2-c2cccs2)CCC12C(=O)NCN2c1ccc(F)cc1 (stereo not drawn) | 5.7 |  |  |
| O=C1NCN(c2ccccc2)C12CCN(CCOc1ccccc1-c1ccccc1)CC2 | 940 |  |  |
| CN1CN(c2ccccc2)C2(CCN(Cc3ccccc3-c3ccco3)CC2)C1=O | 3.1 |  |  |
| O=C1NCN(c2ccccc2)C12CCN(Cc1ccccc1-c1cccc3ccccc13)CC2 | > 10000 | insoluble | insoluble |
| O=C1NCN(c2ccccc2)C12CCN(Cc1ccc(-c3ccc(Cl)cc3)o1)CC2 | 133 |  |  |
| O=C1NCN(c2ccccc2)C12CCN(Cc1ccccc1-c1cc3ccccc3o1)CC2 | > 10000 | 43% | 47% |
| O=C1NCN(c2ccccc2)C12CCN(CCCc1ccccc1-c1cccs1)CC2 | 3 |  |  |

| Compound | IC50 [nM] | % Inh @ 10 μM | % Inh @ 100 μM |
| --- | --- | --- | --- |
| O=C1NCN(c2ccccc2)C12CCN(Cc1ccccc1-c1ccco1)CC2 | 5 |  |  |
| O=C1NCN(c2ccc(F)cc2)C12CCN(Cc1ccccc1-c1cccs1)CC2 | 8.2 |  |  |
| O=C1NCN(c2ccccc2)C12CCN(CCc1ccc(-c3cccs3)cc1)CC2 | 790 |  |  |
| O=C1NCN(c2ccccc2)C12CCN(Cc1cccc(COc3cccc4ccccc34)c1)CC2 | 241 |  |  |
| O=C1NCN(c2ccccc2)C12CCN(Cc1ccccc1-c1ccc(Cl)s1)CC2 | 201 |  |  |
| O=C1NCN(c2ccccc2)C12CCN(Cc1ccc(CN3CCc4ccccc4C3)cc1)CC2 | 1800 |  |  |
| O=C1c2ccccc2C(=O)N1Cc1cccc(CN2CCC3(CC2)C(=O)NCN3c2ccccc2)c1 | > 10000 | 28% |  |
| O=C1c2ccccc2C(=O)N1Cc1ccc(CN2CCC3(CC2)C(=O)NCN3c2ccccc2)cc1 | 1900 |  |  |
| COC(=O)c1ncoc1CN1CN(c2ccccc2)C2(CCN(Cc3ccccc3-c3ccsc3)CC2)C1=O | 7.2 |  |  |
| O=C1NCN(c2ccc(F)cc2)C12CCN(Cc1ccccc1-c1ccco1)CC2 | 8.1 |  |  |
| O=C1NCN(c2ccccc2)C12CCN(Cc1cccc(COc3ccc(O)cc3)c1)CC2 | 2200 |  |  |
| COc1ccc(-c2cccc(CN3CCC4(CC3)C(=O)NCN4c3ccccc3)c2)cc1 | 346 |  |  |
| CN1CN(c2ccccc2)C2(CCN(Cc3ccccc3-c3cccs3)CC2)C1=O | 4.8 |  |  |
| O=C1NCN(c2ccccc2)C12CCN(Cc1ccccc1-c1cccnc1)CC2 | 58 |  |  |
| COc1ccc(-c2ccccc2CN2CCC3(CC2)C(=O)NCN3c2ccccc2)cc1 | 305 |  |  |
| O=C1NCN(c2ccccc2)C12CCN(Cc1cccc(COc3ccc([N+](=O)[O-])cc3)c1)CC2 | 340 |  |  |
| Cc1ccc(-c2cccc(CN3CCC4(CC3)C(=O)NCN4c3ccccc3)c2)cc1 | 761 |  |  |
| Cc1ccc(-c2ccccc2CN2CCC3(CC2)C(=O)NCN3c2ccccc2)cc1 | 960 |  |  |
| Cc1cccc(-c2ncccc2CN2CCC3(CC2)C(=O)NCN3c2ccccc2)c1 | 593 |  |  |
| Cc1cc(N2CNC(=O)C23CCN(Cc2ccccc2-c2cccs2)CC3)ccc1Cl | 61 |  |  |
| O=C1NCN(c2ccccc2)C12CCN(Cc1ccc(COc3ccccc3)cc1)CC2 | > 10000 | 13% |  |
| Cc1cc(N2CNC(=O)C23CCN(Cc2ccccc2-c2ccco2)CC3)ccc1Cl | 48 |  |  |
